In patent US8175815B2, “Method for assessing absorption properties of low solubility compounds” (F. Hoffmann-La Roche AG, priority 2006, dated 2012):

[1] = buffer + 1% w/v HP-b-CD, * = anticipated salt limit exceeded
[2] = buffer, * = anticipated salt limit exceeded

SMILES: CCCCc1oc2ccccc2c1C(=O)c1cc(I)c(OCCN(CC)CC)c(I)c1 [amiodarone]
- S(pH 7.4) (buffer + 1% w/v HP-b-CD): 14.7 μg mL^−1
- S(pH 5.0) [1]: 4188* μg mL^−1
- S(pH 6.2) [1]: 245* μg mL^−1
- S(pH 5.0) [2]: 27 μg mL^−1
- S(pH 6.2) [2]: 1.7 μg mL^−1
- S(pH 7.4) [2]: 0.11 μg mL^−1

Like-named read-outs stand apart in the source and are kept apart here.
